Sequences of proteins named here, by UniProt entry; tags and fusion partners are left off. Residues count along the entry.
UniProt P29317, 27-200: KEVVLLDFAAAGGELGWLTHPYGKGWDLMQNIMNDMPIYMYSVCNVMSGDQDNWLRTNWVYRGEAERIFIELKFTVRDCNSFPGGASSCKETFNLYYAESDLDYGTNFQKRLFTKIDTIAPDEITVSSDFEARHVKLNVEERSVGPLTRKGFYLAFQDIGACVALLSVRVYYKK
UniProt P29317, 28-206 limits assumed: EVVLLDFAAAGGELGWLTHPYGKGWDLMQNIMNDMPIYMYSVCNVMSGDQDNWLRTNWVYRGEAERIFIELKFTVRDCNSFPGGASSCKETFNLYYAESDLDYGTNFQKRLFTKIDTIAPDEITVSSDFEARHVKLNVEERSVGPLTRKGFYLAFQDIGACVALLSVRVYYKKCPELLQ

In PMC7281375, “Therapeutic Targeting of Pancreatic Cancer via EphA2 Dimeric Agonistic Agents” (Pharmaceuticals, 2020):

Experiments:
EphA2 receptor = assay: EphA2 degradation, Western blot of HCT116 cell lysates; assay type: cell-based; conditions: HCT116 cells, 10 μM agent, 2.5 h
[1] = biological target: recombinant 6xHis-EphA2-LBD (EphA2 ligand binding domain) (UniProt P29317)
EphA2-LBD = biological target: T1, EphA2-LBD (Homo sapiens, UniProt P29317); assay: 2D [15N,1H]-sofast HSQC NMR with 15N-labeled EphA2-LBD; assay type: binding; conditions: EphA2-LBD 20 μM, stoichiometric amount of agent
T1 construct: recombinant 6xHis-EphA2-LBD and fluorescent europium-conjugated anti-6xHis antibody were added to each well
Excerpt: As mentioned above, our attempts to crystallize dimeric agents in complex with EphA2-LBD have thus far failed. However, we could express and purify ^15N-labeled EphA2-LBD and have conducted comparative NMR experiments with monomers and dimers (Figure 2). […] While the line broadening is widespread, some resonances seem more affected and presented differences in chemical shifts. Unfortunately, the resonance assignments for EphA2-LBD are not available, but we speculate that these localized changes may reflect the formation, perhaps transiently, of the dimer interface.
Figure 2 2D NMR [^15N,^1H] spectra with ^15N-labeled EphA2-LBD.
Molecular modeling studies were conducted using Sybyl-X 1.2 (Certara, St. Louis, MO, USA) and the X-ray structures of 135E2 in complex with EphA2-LBD (PDB ID 6B9L) and of ephrinA1 in complex with the ectodomain of EphA2 (PDB ID 3MX0). […] Subsequently, a C-terminal Gly-Lys linker was modeled in an extended conformation to 135H11, and covalently linked to a second 135H11 from the other unit of the biological unit dimer. The complex was further energy minimized (partial charges were assigned using the Gasteiger-Huckel method). […] HSQCs were measured on a 700 MHz Avance Bruker instrument equipped with a cryo-probe and automated sample changer. […]

[2] = N-terminal Tyr replaced with 2-(3-chloro-4-fluorophenoxy)acetic acid; cited from earlier work

Q: With `CC(C)[C@H](NC(=O)[C@H](CO)NC(=O)[C@H](CC(=O)O)NC(=O)[C@@H]1CCCN1C(=O)[C@H](Cc1ccc(O)cc1)NC(=O)[C@H](C)NC(=O)[C@H](CO)NC(=O)[C@@H](N)Cc1ccc(O)cc1)C(=O)N1CCC[C@H]1C(=O)N[C@@H](Cc1ccccc1)C(=O)N[C@@H](CCCNC(=N)N)C(=O)N1CCC[C@H]1C(=O)NCC(=O)NCCCC[C@H](NC(=O)CNC(=O)[C@@H]1CCCN1C(=O)[C@H](CCCNC(=N)N)NC(=O)[C@H](Cc1ccccc1)NC(=O)[C@@H]1CCCN1C(=O)[C@@H](NC(=O)[C@H](CO)NC(=O)[C@H](CC(=O)O)NC(=O)[C@@H]1CCCN1C(=O)[C@H](Cc1ccc(O)cc1)NC(=O)[C@H](C)NC(=O)[C@H](CO)NC(=O)[C@@H](N)Cc1ccc(O)cc1)C(C)C)C(N)=O` [135C11] as the compound, how does the “total EphA2 level (anti-EphA2 blot)” value (EphA2 receptor) read?
A: The value was “partial decrease of the receptor”.

Q: With `CC(C)[C@H](NC(=O)[C@H](CO)NC(=O)[C@H](CC(=O)O)NC(=O)[C@@H]1CCCN1C(=O)[C@H](Cc1ccc(O)cc1)NC(=O)[C@H](C)NC(=O)[C@H](CO)NC(=O)[C@@H](N)Cc1ccc(O)cc1)C(=O)N1CCC[C@H]1C(=O)N[C@@H](Cc1ccccc1)C(=O)N[C@@H](CCCNC(=N)N)C(=O)N1CCC[C@H]1C(=O)NCCC(=O)NCCCC[C@H](NC(=O)CCNC(=O)[C@@H]1CCCN1C(=O)[C@H](CCCNC(=N)N)NC(=O)[C@H](Cc1ccccc1)NC(=O)[C@@H]1CCCN1C(=O)[C@@H](NC(=O)[C@H](CO)NC(=O)[C@H](CC(=O)O)NC(=O)[C@@H]1CCCN1C(=O)[C@H](Cc1ccc(O)cc1)NC(=O)[C@H](C)NC(=O)[C@H](CO)NC(=O)[C@@H](N)Cc1ccc(O)cc1)C(C)C)C(N)=O` [135C12] as the compound, how does the “total EphA2 level (anti-EphA2 blot)” value (EphA2 receptor) read?
A: The value was “partial decrease of the receptor”.

Q: Which IC50 [1] does the source give for 135D1 (dimer of 135B12) (peptide) here?
A: Its IC50 is 400 nM.

Q: Which IC50 [1] does the source give for 135C12 (dimer of 135B12) (peptide) here?
A: Its IC50 is 300 nM.

Q: With `CC(C)[C@H](NC(=O)[C@H](CO)NC(=O)[C@H](CC(=O)O)NC(=O)[C@@H]1CCCN1C(=O)[C@H](Cc1ccc(O)cc1)NC(=O)[C@H](C)NC(=O)[C@H](CO)NC(=O)COc1ccc(F)c(Cl)c1)C(=O)N1C[C@H](O)C[C@H]1C(=O)N[C@@H](Cc1ccc(Cl)cc1)C(=O)N[C@@H](CCCNC(=N)N)C(=O)N1CCC[C@H]1C(N)=O` [135G3] as the compound, how does the “changes in amide chemical shifts in 2D [15N,1H]-sofast HSQC” value (EphA2-LBD) read?
A: The value was “Large changes in chemical shifts”.

Q: For `CC(C)[C@H](NC(=O)[C@H](CO)NC(=O)[C@H](CC(=O)O)NC(=O)[C@@H]1CCCN1C(=O)[C@H](Cc1ccc(O)cc1)NC(=O)[C@H](C)NC(=O)[C@H](CO)NC(=O)COc1ccc(F)c(Cl)c1)C(=O)N1CCC[C@H]1C(=O)N[C@@H](Cc1ccccc1)C(=O)N[C@@H](CCCNC(=N)N)C(=O)N1CCC[C@H]1C(N)=O` [135E2], which plasma stability [2] is on record?
A: The plasma stability was “dramatically improve plasma stability”.

Q: With `CC(C)[C@H](NC(=O)[C@H](CO)NC(=O)[C@H](CC(=O)O)NC(=O)[C@@H]1CCCN1C(=O)[C@H](Cc1ccc(O)cc1)NC(=O)[C@H](C)NC(=O)[C@H](CO)NC(=O)[C@@H](N)Cc1ccc(O)cc1)C(=O)N1CCC[C@H]1C(=O)N[C@@H](Cc1ccccc1)C(=O)N[C@@H](CCCNC(=N)N)C(=O)N1CCC[C@H]1C(=O)NCCCC(=O)NCCCC[C@H](NC(=O)CCCNC(=O)[C@@H]1CCCN1C(=O)[C@H](CCCNC(=N)N)NC(=O)[C@H](Cc1ccccc1)NC(=O)[C@@H]1CCCN1C(=O)[C@@H](NC(=O)[C@H](CO)NC(=O)[C@H](CC(=O)O)NC(=O)[C@@H]1CCCN1C(=O)[C@H](Cc1ccc(O)cc1)NC(=O)[C@H](C)NC(=O)[C@H](CO)NC(=O)[C@@H](N)Cc1ccc(O)cc1)C(C)C)C(N)=O` [135D1] as the compound, how does the “total EphA2 level (anti-EphA2 blot)” value (EphA2 receptor) read?
A: The value was “partial decrease of the receptor”.
